Values of other authors, collected in PMC8327781 (Journal of medicinal chemistry, 2021).

How the values were obtained:
[1] = system: HEK293 cells; conditions: 10 μM, 72 hours; cited from earlier work
[2] = system: Expi293F cells; conditions: 10 μM, 72 hours; cited from earlier work

For N#CC[C@H](C1CCCC1)n1cc(-c2ncnc3[nH]ccc23)cn1 [Ruxolitinib], the Effect on proliferation [1] is listed as “did not affect the proliferation” and the Effect on proliferation [2] is listed as “did not affect the proliferation”.
